Tests used:
[1] = for Solubility range: 0.5 mL milliQ water, 25° C., stirred 1 hour, minor value = highest concentration completely dissolved, major value = lowest concentration not completely dissolved
physchem = details: 25 °C, water, thermodynamic from solid, solubility in water, measured at 25 degrees C.

| SMILES | Solubility range [1] | solubility in water as defined according to The United States Pharmacopeia, 24th ed. [1] | solubility at 1 h (physchem) |
| --- | --- | --- | --- |
| COc1ccc(C[C@@H](C)NC[C@H](O)c2ccc(O)c(NC=O)c2)cc1.O=C(O)C(O)C(O)C(=O)O [Mixture form A/form D, (R,R)-Formoterol-L-tartrate] | 14 to 17 mg/mL |  |  |
| COc1ccc(C[C@@H](C)NC[C@H](O)c2ccc(O)c(NC=O)c2)cc1.O=C(O)C(O)C(O)C(=O)O [form A, (R,R)-Formoterol-L-tartrate] | 14 to 17 mg/mL | sparingly soluble |  |
| COc1ccc(C[C@@H](C)NC[C@H](O)c2ccc(O)c(NC=O)c2)cc1.O=C(O)C(O)C(O)C(=O)O [form B, (R,R)-Formoterol-L-tartrate] | 24 to 32 mg/mL | sparingly soluble |  |
| COc1ccc(C[C@@H](C)NC[C@H](O)c2ccc(O)c(NC=O)c2)cc1.O=C(O)C(O)C(O)C(=O)O [form C, (R,R)-Formoterol-L-tartrate] | 12 to 18 mg/mL |  |  |
| COc1ccc(C[C@@H](C)NC[C@H](O)c2ccc(O)c(NC=O)c2)cc1.O=C(O)C(O)C(O)C(=O)O [form D, (R,R)-Formoterol-L-tartrate] | 38 to 83 mg/mL | soluble | 38 to 83 mg/mL |

From patent US9309186B2, “Polymorphic form of a long-acting beta-2 adrenoceptor agonist” (Laboratorios Lesvi S.L., priority 2012, dated 2016)
